Measurements: US20030077573A1, “Methods of identifying compounds useful in the inhibition of neurodegenerative disease” (priority 1999, published 2003)
Some compounds may have been tested in ways that are not shown here.

Key:
[1] = system: murine microglial cell line (N9); assay: LTB4 release from N9 microglial cells; details: Aβ1-40 500 nM + drug (dipyridamole 10 μM), 18 hours
[2] = system: N9 murine microglial cell line; assay: LPS-induced TNF-α release from N9 microglia; format: cell-based; details: LPS 2.5 ng/mL, 18 h; dipyridamole 10 μM, SNP 10 μM, YC-1 10 μM

sodium nitroprusside
effect on Aβ-induced microglial LTB4 release [1]: completely block Aβ-induced microglial LTB4 release
effect on LPS-induced microglial activation (TNF-α release) [2]: markedly reduce microglial activation induced by LPS
